Reference: ChEMBL document CHEMBL1138697, “Development of a new class of potential antiatherosclerosis agents: NO-donor antioxidants” (Bioorg Med Chem Lett, 2004)

Key:
Rattus norvegicus [1] = species on record: Rattus norvegicus; assay: Vasodilating activity in rat aorta strip in absence of 1H-[1,2,4]oxadiazolo[4,3-a]quinoxalin-1-one (ODQ)
Rattus norvegicus [2] = species on record: Rattus norvegicus; assay: Vasodilating activity in rat aorta strip in presence of 1H-[1,2,4]oxadiazolo[4,3-a]quinoxalin-1-one (ODQ) at 100 uM
Rattus norvegicus [3] = species on record: Rattus norvegicus; assay: Tested for inhibition of ferrous salt/ascorbate induced lipidic peroxidation of membrane lipid of rat hepatocytes at 1 mM; IA = inactive; settings: hepatocyte

CCCO[N+](=O)[O-]
EC50 (Rattus norvegicus [1]): 41 µM
EC50 (Rattus norvegicus [2]): 4.6%
IC50 (Rattus norvegicus [3]): Not Active
